# From PubChem BioAssay AID952 (NMMLSC, 2007)
# The chains behind the UniProt entries cited, without tags or fusion partners.
# UniProt Q92843, whole entry: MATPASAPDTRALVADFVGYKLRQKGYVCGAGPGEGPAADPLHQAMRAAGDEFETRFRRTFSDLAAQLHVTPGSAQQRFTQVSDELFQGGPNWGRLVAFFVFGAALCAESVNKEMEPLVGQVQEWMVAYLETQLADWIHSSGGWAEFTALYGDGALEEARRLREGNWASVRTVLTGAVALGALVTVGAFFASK
# The entries are a selection whose mix differs from that of the whole data set. Activity calls are given as the source filed them. Cut-off read from the data, not from the text of the source: active = inhibition above about 40%.
# Target: Bcl-2-like protein 2 (Homo sapiens) (UniProt Q92843)
# Experiment: Bcl-W/Bim complex disruptors – biochemical, multiplexed, bead-based flow cytometry, primary screen (AID 952);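 note: 0% = bound tracer without compound and 100% = peptide blocker; higher means less fluorescent Bim peptide bound to Bcl-W beads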
# Settings: Bim peptide-Bcl-W binding, at 10 µM, hits give high values
row,Structure (SMILES),inhibition
1,N#CC1(Nc2ccccc2)CCN(CCc2ccccc2)CC1,inactive: -2%
2,O=C(NCC1(N2CCCCC2)CCCCC1)c1cccc([N+](=O)[O-])c1,inactive: 1%
3,O=C(NCC1(N2CCOCC2)CCCCC1)c1cc(=O)[nH]c2ccccc12,inactive: -5%
4,CN1CCN(CCOC(=O)C(O)(c2ccccc2)c2ccccc2)CC1,inactive: -3%
5,COc1ccc(NC2CCN(C(=O)OC(C)(C)C)CC2)cc1,inactive: -1%
6,CC(C)c1ccc(NC2CCN(C(=O)OC(C)(C)C)CC2)cc1,inactive: 4%
7,COc1ccc(CN(CCCl)CCCl)cc1Cl,inactive: 0%
8,CN(C)c1cccc(C(=O)NCC2(N3CCCCC3)CCCCC2)c1,inactive: -1%
9,COc1ccc(C(=O)NCC2(N3CCCCC3)CCCCC2)c(OC)c1OC,inactive: 0%
10,O=C(NCC1(N2CCOCC2)CCCCC1)c1cc2ccccc2o1,inactive: 1%
11,O=C(OC1CN2CCC1CC2)C1c2ccccc2Oc2ccccc21 (stereo not given),inactive: 3%
12,CCOC(=O)N1CCC(Nc2ccc(OC)cc2)CC1,inactive: -4%
13,COc1ccc(NC2CCN(CCc3ccccc3)CC2)c(OC)c1,inactive: 1%
14,Fc1ccccc1NC1CCN(Cc2ccccc2)CC1,inactive: 0%
15,CCN1CCC(Nc2cccc(F)c2)CC1,inactive: 0%
16,CN(C)c1ccc(C(=O)NCC2(N3CCCCC3)CCCCC2)cc1,inactive: -3%
17,CCOc1ncccc1C(=O)NCC1(N2CCOCC2)CCCCC1,inactive: -3%
18,CC(C)(C)OC(=O)N1CCC(Nc2ccccc2)CC1,inactive: 0%
19,COc1cc(OC)cc(C(=O)NCC2(N3CCOCC3)CCCCC2)c1,inactive: 1%
20,CCC(CO)(C(=O)OC1CN2CCC1CC2)c1ccccc1 (stereo not given),inactive: 0%
21,COc1ccc(C(=O)NCC2(N3CCOCC3)CCCCC2)cc1OC,inactive: 1%
22,N/C(=N\O)c1c(N)no[n+]1[O-],inactive: -2%
23,O=C(OC1CN2CCC1CC2)C1c2ccccc2C=Cc2ccccc21 (stereo not given),inactive: -3%
24,N#Cc1ccc(C(=O)NCC2(N3CCCCC3)CCCCC2)cc1,inactive: -2%
25,c1ccc(CN2CCC(Nc3ccccc3)CC2)cc1,inactive: -3%
